Reference: ChEMBL document CHEMBL5579821, “Non-kinase off-target inhibitory activities of clinically-relevant kinase inhibitors” (Eur J Med Chem, 2024)

Sequences of proteins named here, by UniProt entry; tags and fusion partners are left off. A change or cut given only in a name is not applied to a line headed by its entry.
UniProt P10721, whole entry: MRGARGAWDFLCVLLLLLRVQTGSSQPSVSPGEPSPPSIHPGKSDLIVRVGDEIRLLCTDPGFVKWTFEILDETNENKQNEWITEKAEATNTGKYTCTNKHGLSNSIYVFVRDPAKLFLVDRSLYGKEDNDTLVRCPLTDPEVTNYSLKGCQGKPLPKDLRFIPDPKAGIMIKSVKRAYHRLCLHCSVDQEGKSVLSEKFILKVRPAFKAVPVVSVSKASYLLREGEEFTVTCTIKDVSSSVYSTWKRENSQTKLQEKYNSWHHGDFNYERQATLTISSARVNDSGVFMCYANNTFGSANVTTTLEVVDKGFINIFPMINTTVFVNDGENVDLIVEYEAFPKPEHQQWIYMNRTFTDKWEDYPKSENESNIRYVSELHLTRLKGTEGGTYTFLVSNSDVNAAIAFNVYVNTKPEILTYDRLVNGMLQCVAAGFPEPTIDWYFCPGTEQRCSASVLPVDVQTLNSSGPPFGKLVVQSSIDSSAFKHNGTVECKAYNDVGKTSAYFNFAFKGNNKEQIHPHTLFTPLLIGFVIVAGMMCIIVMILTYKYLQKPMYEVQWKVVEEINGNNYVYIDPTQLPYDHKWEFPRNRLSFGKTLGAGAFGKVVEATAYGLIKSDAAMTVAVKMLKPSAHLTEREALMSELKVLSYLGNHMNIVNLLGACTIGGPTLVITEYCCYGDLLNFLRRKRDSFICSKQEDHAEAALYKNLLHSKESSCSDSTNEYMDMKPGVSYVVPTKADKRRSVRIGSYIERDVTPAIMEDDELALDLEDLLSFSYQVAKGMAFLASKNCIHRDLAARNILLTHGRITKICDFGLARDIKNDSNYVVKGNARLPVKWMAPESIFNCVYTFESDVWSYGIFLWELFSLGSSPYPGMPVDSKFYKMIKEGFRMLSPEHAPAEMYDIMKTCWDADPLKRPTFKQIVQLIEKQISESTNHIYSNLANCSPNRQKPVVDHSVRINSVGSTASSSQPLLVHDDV
UniProt P36888, whole entry: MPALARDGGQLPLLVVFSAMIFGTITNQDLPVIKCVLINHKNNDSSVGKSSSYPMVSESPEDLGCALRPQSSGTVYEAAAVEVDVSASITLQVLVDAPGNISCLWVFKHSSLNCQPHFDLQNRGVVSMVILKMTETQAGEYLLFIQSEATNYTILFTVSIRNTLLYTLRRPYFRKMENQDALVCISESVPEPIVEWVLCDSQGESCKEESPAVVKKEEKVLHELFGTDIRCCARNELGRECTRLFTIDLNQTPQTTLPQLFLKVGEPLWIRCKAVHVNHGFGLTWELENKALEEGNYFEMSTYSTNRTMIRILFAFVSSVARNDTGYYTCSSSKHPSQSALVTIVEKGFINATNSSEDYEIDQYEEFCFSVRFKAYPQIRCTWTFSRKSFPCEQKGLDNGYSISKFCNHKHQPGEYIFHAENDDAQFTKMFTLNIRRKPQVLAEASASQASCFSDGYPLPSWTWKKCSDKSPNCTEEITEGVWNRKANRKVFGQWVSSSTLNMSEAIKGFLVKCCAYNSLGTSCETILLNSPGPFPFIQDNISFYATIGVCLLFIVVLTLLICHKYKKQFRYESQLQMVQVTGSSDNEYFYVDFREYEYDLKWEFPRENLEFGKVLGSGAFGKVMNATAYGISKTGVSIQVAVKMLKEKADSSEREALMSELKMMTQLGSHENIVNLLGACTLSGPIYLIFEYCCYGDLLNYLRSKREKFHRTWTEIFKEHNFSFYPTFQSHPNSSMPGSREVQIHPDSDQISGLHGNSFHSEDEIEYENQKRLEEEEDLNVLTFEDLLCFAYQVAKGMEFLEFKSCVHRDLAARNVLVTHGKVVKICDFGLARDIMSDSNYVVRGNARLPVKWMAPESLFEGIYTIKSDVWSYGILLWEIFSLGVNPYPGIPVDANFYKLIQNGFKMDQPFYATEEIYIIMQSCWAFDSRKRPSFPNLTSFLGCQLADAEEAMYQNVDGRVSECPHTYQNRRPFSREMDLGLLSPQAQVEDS
UniProt Q99755: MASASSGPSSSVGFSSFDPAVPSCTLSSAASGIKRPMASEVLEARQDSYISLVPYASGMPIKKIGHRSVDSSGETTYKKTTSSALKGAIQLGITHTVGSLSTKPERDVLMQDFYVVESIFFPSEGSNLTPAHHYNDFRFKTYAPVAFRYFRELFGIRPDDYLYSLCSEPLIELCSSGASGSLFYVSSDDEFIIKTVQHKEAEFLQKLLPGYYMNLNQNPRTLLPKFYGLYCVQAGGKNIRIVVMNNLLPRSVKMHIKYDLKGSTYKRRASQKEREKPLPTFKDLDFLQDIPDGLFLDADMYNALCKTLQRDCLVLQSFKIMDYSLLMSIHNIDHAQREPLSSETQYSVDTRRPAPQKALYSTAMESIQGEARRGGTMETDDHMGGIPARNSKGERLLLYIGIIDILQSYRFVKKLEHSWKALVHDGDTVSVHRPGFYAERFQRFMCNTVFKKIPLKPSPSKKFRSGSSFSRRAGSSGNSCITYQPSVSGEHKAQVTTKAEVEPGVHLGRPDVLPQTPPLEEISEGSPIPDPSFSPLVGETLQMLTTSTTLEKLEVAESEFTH

Experiments:
[1] = molecular target: Mast/stem cell growth factor receptor Kit (Homo sapiens) (UniProt P10721); assay: Inhibition of c-KIT (unknown origin) at 10 uM relative to control
[2] = molecular target: T1, Serine/threonine-protein kinase RIO1 (Homo sapiens) (UniProt Q9BRS2); assay: Inhibition of RIOK1 (unknown origin) at 10 uM relative to control
T1 sequence (whole entry): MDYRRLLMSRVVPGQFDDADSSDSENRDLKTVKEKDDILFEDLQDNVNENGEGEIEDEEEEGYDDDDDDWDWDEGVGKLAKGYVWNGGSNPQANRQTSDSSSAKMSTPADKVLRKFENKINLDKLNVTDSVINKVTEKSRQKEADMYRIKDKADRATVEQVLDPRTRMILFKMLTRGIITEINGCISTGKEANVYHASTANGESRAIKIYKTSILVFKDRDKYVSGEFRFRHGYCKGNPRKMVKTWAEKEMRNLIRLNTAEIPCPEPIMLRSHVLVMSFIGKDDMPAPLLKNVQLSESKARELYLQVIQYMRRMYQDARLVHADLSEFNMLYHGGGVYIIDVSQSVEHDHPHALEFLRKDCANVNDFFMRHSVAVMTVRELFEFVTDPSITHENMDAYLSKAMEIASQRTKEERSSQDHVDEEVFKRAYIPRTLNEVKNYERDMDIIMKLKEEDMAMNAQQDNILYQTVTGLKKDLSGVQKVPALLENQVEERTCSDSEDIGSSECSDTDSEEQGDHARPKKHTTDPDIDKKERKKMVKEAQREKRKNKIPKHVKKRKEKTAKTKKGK

[3] = molecular target: T2, Serine/threonine-protein kinase RIO3 (Homo sapiens) (UniProt O14730); assay: Inhibition of RIOK3 (unknown origin) at 10 uM relative to control
T2 sequence (whole entry): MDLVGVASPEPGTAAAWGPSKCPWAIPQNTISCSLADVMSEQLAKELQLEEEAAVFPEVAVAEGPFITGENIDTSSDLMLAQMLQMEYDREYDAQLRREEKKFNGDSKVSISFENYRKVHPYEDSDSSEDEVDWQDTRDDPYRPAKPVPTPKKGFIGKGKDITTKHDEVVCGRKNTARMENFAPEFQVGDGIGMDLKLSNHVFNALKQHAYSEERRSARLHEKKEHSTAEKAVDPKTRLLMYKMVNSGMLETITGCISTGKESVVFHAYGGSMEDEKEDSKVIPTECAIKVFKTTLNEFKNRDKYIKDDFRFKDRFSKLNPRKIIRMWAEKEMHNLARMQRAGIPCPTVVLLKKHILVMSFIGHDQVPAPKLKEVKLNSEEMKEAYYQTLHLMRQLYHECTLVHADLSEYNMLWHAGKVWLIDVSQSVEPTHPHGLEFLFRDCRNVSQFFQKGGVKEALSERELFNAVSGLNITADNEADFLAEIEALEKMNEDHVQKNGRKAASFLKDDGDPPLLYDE

[4] = molecular target: Receptor-type tyrosine-protein kinase FLT3 (Homo sapiens) (UniProt P36888); assay: Inhibition of FLT3 (unknown origin) at 10 uM relative to control
[5] = molecular target: Phosphatidylinositol 4-phosphate 5-kinase type-1 alpha (Homo sapiens) (UniProt Q99755); assay: Inhibition of PIP5K1A (unknown origin) at 10 uM relative to control

## C[C@@H]1CC(=O)NN=C1c1ccc(NN=C(C#N)C#N)cc1
[1]
  inhibition: 74%
[2]
  inhibition: 85%
[3]
  inhibition: 85%
[4]
  inhibition: 76%
[5]
  inhibition: 78%
